Test results taken from patent US20240182482A1, “FUSED CYCLIC COMPOUND AS WEE-1 INHIBITOR, PREPARATION METHOD THEREFOR AND USE THEREOF” (WIGEN BIOMEDICINE TECHNOLOGY (SHANGHAI) CO., LTD., priority 2021, published 2024).

Sequences of proteins named here, by UniProt entry; tags and fusion partners are left off.
UniProt P30291, whole entry: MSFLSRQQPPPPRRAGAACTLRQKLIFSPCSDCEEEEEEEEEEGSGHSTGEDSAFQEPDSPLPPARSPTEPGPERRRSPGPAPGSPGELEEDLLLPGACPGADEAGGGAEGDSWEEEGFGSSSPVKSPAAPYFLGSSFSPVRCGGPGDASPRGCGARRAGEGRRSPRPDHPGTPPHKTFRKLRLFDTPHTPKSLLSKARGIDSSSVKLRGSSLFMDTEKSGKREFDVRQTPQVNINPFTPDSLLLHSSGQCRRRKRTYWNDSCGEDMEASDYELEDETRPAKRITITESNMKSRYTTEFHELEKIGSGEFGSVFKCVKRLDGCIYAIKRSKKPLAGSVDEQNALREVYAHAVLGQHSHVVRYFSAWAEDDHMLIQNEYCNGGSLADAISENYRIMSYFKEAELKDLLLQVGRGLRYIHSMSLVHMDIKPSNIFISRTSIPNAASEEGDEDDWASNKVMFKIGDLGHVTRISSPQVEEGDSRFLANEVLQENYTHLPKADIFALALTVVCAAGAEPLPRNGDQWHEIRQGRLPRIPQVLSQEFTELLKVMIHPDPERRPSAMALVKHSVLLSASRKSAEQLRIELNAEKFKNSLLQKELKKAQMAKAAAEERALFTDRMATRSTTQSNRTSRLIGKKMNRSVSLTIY

Assays:
MIA PaCa-2 cells [1] = experiment: In-vitro anti-proliferative activity on MIA PaCa-2 cells (intracellular ATP content); assay type: cell-based; conditions: read-out: IC50 Without GMC, anti-proliferative activity on MIA PaCa-2 cells, compound alone, 72 h after dosing
Wee-1 kinase = Wee-1 kinase (Homo sapiens (Human), UniProt P30291); experiment: Inhibitory activity against Wee-1 kinase (ADP-GLO chemiluminescence); assay type: biochemical; conditions: read-out: IC50 for the inhibitory activity against Wee-1 kinase, 60 min reaction at room temperature
MIA PaCa-2 cells [2] = experiment: In-vitro anti-proliferative activity in combination with gemcitabine (GMC) on MIA PaCa-2 cells; assay type: cell-based; conditions: read-out: IC50 GMC (20 nM), anti-proliferative activity on MIA PaCa-2 cells; in combination with 20 nM gemcitabine, 72 h after dosing, ATP content

`CN1Cc2cc(Nc3ncc4c(F)cn(-c5cncc(N=S(C)(C)=O)n5)c4n3)cc3c2C(CCC3)C1` (stereo not drawn) gave an IC50 (MIA PaCa-2 cells [1]) of 73 nM, an IC50 (Wee-1 kinase) of 2.08 nM and an IC50 (MIA PaCa-2 cells [2]) of 1.6 nM.
